The entries are a selection whose mix differs from that of the whole data set. Activity calls are given as the source filed them. Calls come from the whole dose curve; as a rule, active = well fitted activation curve with a large enough effect; inconclusive = small, poorly fitted or top-dose-only effect; inactive = flat fitted curve, though single readings scatter.
Experiment: Confirmation and Secondary Assay for Modulators of Hemoglobin Beta Chain Splicing at IVS2 705 locus; note: % of control where 0% means no effect
Settings: HeLa EGFP-705 splicing reporter, GFP fluorescence, 48 h; at 46.1 µM (top of the series) unless noted
Excerpt: NIH Chemical Genomics Center [NCGC] NIH Molecular Libraries Screening Centers Network [MLSCN] MLSCN Grant: 1 X01 MH080684-01 PI Name: Dr. Ryszard Kole NCGC Assay Overview: Modulation of Alternative Splicing as Therapy Abnormal splicing is associated with a number of diseases, including cancer and genetic diseases such as cystic fibrosis, muscular dystrophy and beta-thalassemia. Alteration of disease associated splicing patterns provides a promising target for treatment. […] Mutations in the second intron of the b-globin gene at positions 654 or 705 are clinically relevant and cause mis-splicing which results in an out of frame gene product. […] EGFP-705 HeLa Cells as screen system. HeLa cell lines were stably transfected with a construct in which the EGFP (enhanced green fluorescent protein) cDNA was interrupted by the second intron of the beta-globin gene (IVS2-705). The ISV2 intron contains mutations which cause mis-splicing of EGFP and premature termination of EGFP which results in a nonfluorescent protein product. […]
NCGC Assay Protocol Summary: Confirmatory Screening. […] Plates were read in the Acumen Explorer (TTP Labtech) using 488 nm laser excitation and 500-520 nm emission PMT filter in a 1 x 8 uM capture mode. Fluorescnet objects ranging in size from 5 to 250 uM were measured and the total peak GFP intensity for each well was used for data analysis. […]

Row | SMILES | activation
1 | CCN(CCCl)Cc1ccccc1C | inactive: 1.24% [at 38.3 µM]
2 | OCCSCCO | inactive: 0.74%

From PubChem BioAssay AID930 (National Center for Advancing Translational Sciences (NCATS), 2007)
